The chains behind the UniProt entries cited, without tags or fusion partners.
UniProt Q01959, whole entry: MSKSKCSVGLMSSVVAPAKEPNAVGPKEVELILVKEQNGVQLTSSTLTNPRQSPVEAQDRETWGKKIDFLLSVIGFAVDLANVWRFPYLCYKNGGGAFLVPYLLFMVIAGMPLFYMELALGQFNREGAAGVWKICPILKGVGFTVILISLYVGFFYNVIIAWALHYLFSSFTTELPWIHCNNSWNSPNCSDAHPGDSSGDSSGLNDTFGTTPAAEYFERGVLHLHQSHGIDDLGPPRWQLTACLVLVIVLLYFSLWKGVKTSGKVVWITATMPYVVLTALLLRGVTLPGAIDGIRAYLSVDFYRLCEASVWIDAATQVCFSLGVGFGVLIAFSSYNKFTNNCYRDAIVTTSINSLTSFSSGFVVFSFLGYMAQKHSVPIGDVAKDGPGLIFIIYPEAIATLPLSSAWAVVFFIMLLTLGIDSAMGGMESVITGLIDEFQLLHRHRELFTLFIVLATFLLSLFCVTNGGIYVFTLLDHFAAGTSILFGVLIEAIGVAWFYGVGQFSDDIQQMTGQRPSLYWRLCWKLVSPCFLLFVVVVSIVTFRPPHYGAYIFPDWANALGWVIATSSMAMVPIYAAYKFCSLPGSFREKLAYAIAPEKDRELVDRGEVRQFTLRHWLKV

According to US20090054489A1:

How the values were obtained:
[1] = tested on: 5-HT-2A/2C receptors; assay: IC50 for 5-HT-2A/C receptors, standard uptake assay using labeled 5-HT; conditions: read-out: IC50 for 5-HT-2A/2C receptors; [3H]5HT
Protocol: (§1) In vitro inhibitory profiles of two illustrative DAT-5HT2 antagonists, CNS-30,100 and CNS-31,100, were determined by measuring their respective IC50 using standard assays.
Similarly, IC50 for 5-HT-2A/C receptors can be measured using a standard uptake assay using labeled 5-HT. See Rudolph et al., J. Pharmacol. Exp. Ther. 287(1): 389-94, 1998. Briefly, the time course of the 5HT uptake can be determined by incubating each cell/tissue with the receptor at different periods in containers containing 2 ml of RBS without Ca++ at 30° C. in which [^3H]5HT (38 nM) is added. For estimating the kinetic parameters of 5HT uptake, several concentrations of [^3H]5HT may be used, ranging, for example, from 25 to 240 nM, using a 30-min incubation period. Corresponding incubations were conducted in a Na+-free medium to correct for nonspecific uptake. Radioactivity not incorporated by the tissue/cell is washed off by further incubation for 10 min in 100 ml of RBS. The tissue/cell is homogenized in 2 ml of 10% perchloric acid at the end of the incubation. The resulting suspension is centrifuged at 600×g for 5 min and 0.1 ml of the supernatant is analyzed for radioactivity.

[2] = molecular target: DAT (SLC6A3) (Homo sapiens, UniProt Q01959); assay: uptake assay for measuring IC50 of DAT; conditions: read-out: IC50 against DAT (SLC6A3); cells expressing DAT, tritiated amine uptake
Protocol: as §1
In a typical uptake assay for measuring IC50 of DAT, the assay is performed at room temperature in Krebs-Ringer's-HEPES (KRH) buffer (125 mM NaCl, 4.8 mM KCl, 1.2 mM MgSO4, 1.2 mM KH2PO4, 1.3 mM CaCl2, and 25 mM HEPES, pH 7.4), supplemented with 0.1% D-glucose, 1 mM ascorbic acid, 1 mM tropolone [catechol-O-methyltransferase (EC 2.1.1.6)-inhibitor] and 10 μM pargyline (monoamine oxidase-B inhibitor). Before the assay, cells expressing DAT are washed once with KRH and equilibrated for 5 min. The cells may be assayed in 24-well plates and incubated for 2-5 min with tritiated amines. Nontransported inhibitors were preincubated for 5 min, and substrates were applied together with the tritiated substrate. The uptake assay is terminated with two washes of ice-cold KRH, and the accumulated radioactivity is recovered by lysing the cells in 0.2% SDS and 0.1 N NaOH and counting on a Liquid Scintillation Analyzer 1900 TR (Packard, Meriden, Conn.). Nonspecific uptake can be determined in the presence of 10 μM GBR12909 (for hDAT). […]
Vmax values for amine uptake in stable transfected DAT-cells are determined in parallel assays for at least two amines per experiment and expressed as relative values.

Cc1nc(CNC2CCN(CC3(c4ccc(Cl)cc4)CCC3)CC2COc2ccc(C(F)(F)F)cc2)c(N)[nH]1 (centres unmarked)
IC50 [1]: 25 to 75 nM | IC50 [2]: 75 nM
